Test system: muscarinic cholinergic receptor
Experiment: Muscarinic cholinergic radioreceptor assay ([3H] QNB competition, serum antidepressant levels)
Assay type: binding, rat (Sprague-Dawley)
Settings: Standard F, 0.04 μM amitriptyline, Table II

Work on `CN(C)CCC=C1c2ccccc2CCc2ccccc21` [amitriptyline] yielded a CPM of 10780 CPM.

Source: US4299813A, “Assay kit and method” (priority 1979, dated 1981)
